Results taken from ChEMBL document CHEMBL5620418.

target: T1, Delta-type opioid receptor (Homo sapiens, UniProt P41143); experiment: Displacement of [3H]DPDPE from human cloned delta-opioid receptor expressed in CHO cell membrane by liquid scintillation counting

Structure (SMILES)	Ki [nM]
CCCC(CCC)C(=O)Nc1ccc(C(=O)[C@H]2C[C@@]34C=C[C@]2(OC)[C@@H]2Oc5c(OC)ccc6c5[C@@]23CCN(CC2CC2)[C@@H]4C6)cc1	723
COc1ccc2c3c1O[C@H]1[C@@]4(OC)C=C[C@@]5(C[C@@H]4C(=O)c4ccc(NC(=O)C(C)(C)C)cc4)[C@@H](C2)N(CC2CC2)CC[C@]315	319
COc1cccc(C(=O)Nc2ccc(C(=O)[C@H]3C[C@@]45C=C[C@]3(OC)[C@@H]3Oc6c(OC)ccc7c6[C@@]34CCN(CC3CC3)[C@@H]5C7)cc2)c1	1270
COc1ccc2c3c1O[C@H]1[C@@]4(OC)C=C[C@@]5(C[C@@H]4C(=O)c4ccc(NC(=O)c6cccnc6)cc4)[C@@H](C2)N(CC2CC2)CC[C@]315	2030
COc1ccc2c3c1O[C@H]1[C@@]4(OC)C=C[C@@]5(C[C@@H]4C(=O)c4ccc(NC(=O)c6cnn(C)c6)cc4)[C@@H](C2)N(CC2CC2)CC[C@]315	552
COc1ccc2c3c1O[C@H]1[C@@]4(OC)C=C[C@@]5(C[C@@H]4C(=O)c4ccc(NC(=O)c6ccncc6)cc4)[C@@H](C2)N(CC2CC2)CC[C@]315	615
COc1ccc2c3c1O[C@H]1[C@@]4(OC)C=C[C@@]5(C[C@@H]4C(=O)c4ccc(NC(=O)OCc6ccccc6)cc4)[C@@H](C2)N(CC2CC2)CC[C@]315	> 10000
COc1ccc2c3c1O[C@H]1[C@@]4(OC)C=C[C@@]5(C[C@@H]4C(=O)c4ccc(NCc6ccccc6)cc4)[C@@H](C2)N(CC2CC2)CC[C@]315	> 5000
COc1ccc2c3c1O[C@H]1[C@@]4(OC)C=C[C@@]5(C[C@@H]4C(=O)c4ccc(NC(C)=O)cc4)[C@@H](C2)N(CC2CC2)CC[C@]315	1040
COc1ccc2c3c1O[C@H]1[C@@]4(OC)C=C[C@@]5(C[C@@H]4C(=O)c4ccc(NC(=O)C6CC6)cc4)[C@@H](C2)N(CC2CC2)CC[C@]315	1030
COc1ccc2c3c1O[C@H]1[C@@]4(OC)C=C[C@@]5(C[C@@H]4C(=O)c4ccc(NC(=O)c6ccsc6)cc4)[C@@H](C2)N(CC2CC2)CC[C@]315	2900
COc1ccc2c3c1O[C@H]1[C@@]4(OC)C=C[C@@]5(C[C@@H]4C(=O)c4ccc(NC(=O)Cc6ccccc6)cc4)[C@@H](C2)N(CC2CC2)CC[C@]315	923
COc1ccc2c3c1O[C@H]1[C@@]4(OC)C=C[C@@]5(C[C@@H]4C(=O)c4ccc(NC(=O)c6ccc(C(F)(F)F)cc6)cc4)[C@@H](C2)N(CC2CC2)CC[C@]315	> 10000

target: T1, Delta-type opioid receptor; experiment: Agonist activity at human delta opioid receptor expressed in CHO cell membrane assessed as stimulation of [35S]GTPgammaS binding incubated for 1 hr by liquid scintillation counting analysis

Structure (SMILES)	EC50 [nM]
COc1ccc2c3c1O[C@@H]1[C@]34CCN(CC3CC3)[C@H](C2)[C@]42C=C[C@@]1(OC)C(C(=O)c1ccccc1)C2 (stereo not given in full)	678

target: T2, Kappa-type opioid receptor (Homo sapiens, UniProt P41145); experiment: Binding affinity to kappa-opioid receptor (unknown origin)

Structure (SMILES)	Ki [nM]
COc1ccc2c3c1O[C@@H]1[C@]34CCN(CC3CC3)[C@H](C2)[C@]42C=C[C@@]1(OC)C(C(=O)c1ccccc1)C2 (stereo not given in full)	0.4

target: T2, Kappa-type opioid receptor; experiment: Agonist activity at human kappa opioid receptor expressed in CHO cell membrane assessed as stimulation of [35S]GTPgammaS binding incubated for 1 hr by liquid scintillation counting analysis

Structure (SMILES)	EC50 [nM]
COc1ccc2c3c1O[C@@H]1[C@]34CCN(CC3CC3)[C@H](C2)[C@]42C=C[C@@]1(OC)C(C(=O)c1ccccc1)C2 (stereo not given in full)	1

target: T3, Mu-type opioid receptor (Homo sapiens, UniProt P35372); experiment: Agonist activity at human mu opioid receptor expressed in CHO cell membrane assessed as stimulation of [35S]GTPgammaS binding incubated for 1 hr by liquid scintillation counting analysis

Structure (SMILES)	EC50 [nM]
COc1ccc2c3c1O[C@@H]1[C@]34CCN(CC3CC3)[C@H](C2)[C@]42C=C[C@@]1(OC)C(C(=O)c1ccccc1)C2 (stereo not given in full)	130

target: T3, Mu-type opioid receptor; experiment: Binding affinity to mu-opioid receptor (unknown origin)

Structure (SMILES)	Ki [nM]
COc1ccc2c3c1O[C@@H]1[C@]34CCN(CC3CC3)[C@H](C2)[C@]42C=C[C@@]1(OC)C(C(=O)c1ccccc1)C2 (stereo not given in full)	130

target: T2, Kappa-type opioid receptor; experiment: Displacement of [3H]U69593 from human cloned kappa-opioid receptor expressed in CHO cell membrane by liquid scintillation counting

Structure (SMILES)	Ki [nM]
COc1ccc2c3c1O[C@H]1[C@@]4(OC)C=C[C@@]5(C[C@@H]4C(=O)c4ccc(NC(=O)C(C)(C)C)cc4)[C@@H](C2)N(CC2CC2)CC[C@]315	1590
COc1ccc2c3c1O[C@H]1[C@@]4(OC)C=C[C@@]5(C[C@@H]4C(=O)c4ccc(NC(=O)c6cnn(C)c6)cc4)[C@@H](C2)N(CC2CC2)CC[C@]315	2430
COc1ccc2c3c1O[C@H]1[C@@]4(OC)C=C[C@@]5(C[C@@H]4C(=O)c4ccc(NC(=O)OCc6ccccc6)cc4)[C@@H](C2)N(CC2CC2)CC[C@]315	322
COc1ccc2c3c1O[C@H]1[C@@]4(OC)C=C[C@@]5(C[C@@H]4C(=O)c4ccc(NCc6ccccc6)cc4)[C@@H](C2)N(CC2CC2)CC[C@]315	104
COc1ccc2c3c1O[C@H]1[C@@]4(OC)C=C[C@@]5(C[C@@H]4C(=O)c4ccc(NC(C)=O)cc4)[C@@H](C2)N(CC2CC2)CC[C@]315	2920
COc1ccc2c3c1O[C@H]1[C@@]4(OC)C=C[C@@]5(C[C@@H]4C(=O)c4ccc(NC(=O)C6CC6)cc4)[C@@H](C2)N(CC2CC2)CC[C@]315	1210
COc1ccc2c3c1O[C@H]1[C@@]4(OC)C=C[C@@]5(C[C@@H]4C(=O)c4ccc(NC(=O)Cc6ccccc6)cc4)[C@@H](C2)N(CC2CC2)CC[C@]315	503
COc1ccc2c3c1O[C@H]1[C@@]4(OC)C=C[C@@]5(C[C@@H]4C(=O)c4ccc(NC(=O)c6ccc(C(F)(F)F)cc6)cc4)[C@@H](C2)N(CC2CC2)CC[C@]315	2550

target: T1, Delta-type opioid receptor; experiment: Binding affinity to delta-opioid receptor (unknown origin)

Structure (SMILES)	Ki [nM]
COc1ccc2c3c1O[C@@H]1[C@]34CCN(CC3CC3)[C@H](C2)[C@]42C=C[C@@]1(OC)C(C(=O)c1ccccc1)C2 (stereo not given in full)	774

target: T3, Mu-type opioid receptor; experiment: Displacement of [3H]DAMGO from human cloned mu-opioid receptor expressed in CHO cell membrane by liquid scintillation counting

Structure (SMILES)	Ki [nM]
CCCC(CCC)C(=O)Nc1ccc(C(=O)[C@H]2C[C@@]34C=C[C@]2(OC)[C@@H]2Oc5c(OC)ccc6c5[C@@]23CCN(CC2CC2)[C@@H]4C6)cc1	234
COc1ccc2c3c1O[C@H]1[C@@]4(OC)C=C[C@@]5(C[C@@H]4C(=O)c4ccc(NC(=O)C(C)(C)C)cc4)[C@@H](C2)N(CC2CC2)CC[C@]315	35.2
COc1cccc(C(=O)Nc2ccc(C(=O)[C@H]3C[C@@]45C=C[C@]3(OC)[C@@H]3Oc6c(OC)ccc7c6[C@@]34CCN(CC3CC3)[C@@H]5C7)cc2)c1	586
COc1ccc2c3c1O[C@H]1[C@@]4(OC)C=C[C@@]5(C[C@@H]4C(=O)c4ccc(NC(=O)c6cccnc6)cc4)[C@@H](C2)N(CC2CC2)CC[C@]315	186
COc1ccc2c3c1O[C@H]1[C@@]4(OC)C=C[C@@]5(C[C@@H]4C(=O)c4ccc(NC(=O)c6cnn(C)c6)cc4)[C@@H](C2)N(CC2CC2)CC[C@]315	518
COc1ccc2c3c1O[C@H]1[C@@]4(OC)C=C[C@@]5(C[C@@H]4C(=O)c4ccc(NC(=O)c6ccncc6)cc4)[C@@H](C2)N(CC2CC2)CC[C@]315	40.6
COc1ccc2c3c1O[C@H]1[C@@]4(OC)C=C[C@@]5(C[C@@H]4C(=O)c4ccc(NC(=O)OCc6ccccc6)cc4)[C@@H](C2)N(CC2CC2)CC[C@]315	672
COc1ccc2c3c1O[C@H]1[C@@]4(OC)C=C[C@@]5(C[C@@H]4C(=O)c4ccc(NCc6ccccc6)cc4)[C@@H](C2)N(CC2CC2)CC[C@]315	340
COc1ccc2c3c1O[C@H]1[C@@]4(OC)C=C[C@@]5(C[C@@H]4C(=O)c4ccc(NC(C)=O)cc4)[C@@H](C2)N(CC2CC2)CC[C@]315	66.9
COc1ccc2c3c1O[C@H]1[C@@]4(OC)C=C[C@@]5(C[C@@H]4C(=O)c4ccc(NC(=O)C6CC6)cc4)[C@@H](C2)N(CC2CC2)CC[C@]315	65.2
COc1ccc2c3c1O[C@H]1[C@@]4(OC)C=C[C@@]5(C[C@@H]4C(=O)c4ccc(NC(=O)c6ccsc6)cc4)[C@@H](C2)N(CC2CC2)CC[C@]315	57.3
COc1ccc2c3c1O[C@H]1[C@@]4(OC)C=C[C@@]5(C[C@@H]4C(=O)c4ccc(NC(=O)Cc6ccccc6)cc4)[C@@H](C2)N(CC2CC2)CC[C@]315	163
COc1ccc2c3c1O[C@H]1[C@@]4(OC)C=C[C@@]5(C[C@@H]4C(=O)c4ccc(NC(=O)c6ccc(C(F)(F)F)cc6)cc4)[C@@H](C2)N(CC2CC2)CC[C@]315	1120
